System: human red blood cells (RBCs, blood type O)
Experiment: Hemolytic activity assay
Format: cell-based
Conditions: 3% hematocrit, 60 min, 37 °C, even at 12.5 μg/mL
Description: The hemolytic activity of the peptides was determined using human red blood cells (RBCs, blood type O). The RBCs were collected from citric acid-treated blood by centrifugation at 3000× g for 5 min and washed three times with 10 mM PB (pH 7.4) containing 150 mM NaCl to remove the plasma and buffy coat. A suspension of 3% hematocrit in buffer with or without peptides was incubated for 60 min at 37 °C. Hemolysis was expressed as the hemoglobin content obtained from the absorbance of the supernatant at 405 nm after centrifugation at 3000× g for 5 min. A 100% hemolysis was determined based on hemoglobin release after the addition of 0.1% Triton X-100. The hemolysis percentage of the peptides was calculated using the following formula: % Hemolysis = [(Abs405nm in the peptide solution − Abs405nm in buffer)/(Abs405nm in 0.1% Triton X-100 − Abs405nm in buffer)] × 100
Hemolytic assays were performed in triplicate and the results were averaged.

## Piscidin 1 [reference compound]
  Hemolysis at 12.5 μg/mL: strong hemolysis

— PMC4210897, “Antimicrobial Activity of Peptides Derived from Olive Flounder Lipopolysaccharide Binding Protein/Bactericidal Permeability-Increasing Protein (LBP/BPI)” (Marine Drugs, 2014)
